Results reported in PubChem BioAssay (NCI).
Some of these compounds have results that are not shown, active ones among them.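 Step 1: Grow cells in 96-well plates. Step 2: Expose to compound for 48 hours at 5 concentrations. Step 3: Interpolate endpoints linearly; if unreached, use highest concentration. At the GI50, growth is halved. Definition used: TGI = concentration required for complete inhibition of growth.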

Legend:
Assay in all cases: NCI-60 cell line screen, 48 h
[1] = system: NCI-H23 lung
[2] = system: NCI-H460 lung
[3] = system: NCI/ADR-RES ovarian
[4] = system: OVCAR-3 ovarian
[5] = system: OVCAR-4 ovarian
[6] = system: OVCAR-5 ovarian
[7] = system: OVCAR-8 ovarian
[8] = system: PC-3 prostate
[9] = system: RPMI-8226 leukemia
[10] = system: RXF 393 renal
[11] = system: SF-268 CNS
[12] = system: SF-295 CNS
[13] = system: SF-539 CNS
[14] = system: SK-MEL-2 melanoma
[15] = system: SK-MEL-28 melanoma
[16] = system: SK-MEL-5 melanoma
[17] = system: SK-OV-3 ovarian
[18] = system: SN12C renal
[19] = system: SNB-19 CNS
[20] = system: SNB-75 CNS
[21] = system: SR leukemia
[22] = system: SW-620 colon
[23] = system: T-47D breast
[24] = system: TK-10 renal
[25] = system: U251 CNS
[26] = system: UACC-257 melanoma
[27] = system: UACC-62 melanoma
[28] = system: UO-31 renal

CCCC#CC(O)(C(=O)OC1CN2CCC1CC2)C1CCCCC1 (stereo not given)
TGI [1]: > 100 µM
GI50 [2]: > 100 µM
TGI [2]: > 100 µM
GI50 [3]: > 100 µM
TGI [3]: > 100 µM
GI50 [4]: > 100 µM
TGI [4]: > 100 µM
GI50 [5]: > 100 µM
TGI [5]: > 100 µM
GI50 [6]: > 100 µM
TGI [6]: > 100 µM
GI50 [7]: > 100 µM
TGI [7]: > 100 µM
GI50 [8]: > 100 µM
TGI [8]: > 100 µM
GI50 [9]: > 100 µM
TGI [9]: > 100 µM
GI50 [10]: 39.5 µM
TGI [10]: > 100 µM
GI50 [11]: 86.5 µM
TGI [11]: > 100 µM
GI50 [12]: > 100 µM
TGI [12]: > 100 µM
GI50 [13]: > 100 µM
TGI [13]: > 100 µM
GI50 [14]: > 100 µM
TGI [14]: > 100 µM
GI50 [15]: > 100 µM
TGI [15]: > 100 µM
GI50 [16]: > 100 µM
TGI [16]: > 100 µM
GI50 [17]: > 100 µM
TGI [17]: > 100 µM
GI50 [18]: > 100 µM
TGI [18]: > 100 µM
GI50 [19]: > 100 µM
TGI [19]: > 100 µM
GI50 [20]: 31.4 µM
TGI [20]: > 100 µM
GI50 [21]: > 100 µM
TGI [21]: > 100 µM
GI50 [22]: > 100 µM
TGI [22]: > 100 µM
GI50 [23]: > 100 µM
TGI [23]: > 100 µM
GI50 [24]: > 100 µM
TGI [24]: > 100 µM
GI50 [25]: > 100 µM
TGI [25]: > 100 µM
GI50 [26]: > 100 µM
TGI [26]: > 100 µM
GI50 [27]: 95.4 µM
TGI [27]: > 100 µM
GI50 [28]: 97.9 µM
TGI [28]: > 100 µM
